The values below come from paper PMC6689761 (International Journal of Nanomedicine, 2019).

This series in a line: PK and biodistribution in rats after IM injection. The series is classed as in vivo, Sprague-Dawley rats. Conditions: rat, day 7.

For 2`-deoxy-5-fluoro-3`thiacytidine [FTC], the “FTC level in brain” value is listed as 1.3 ng/g (45 mg/kg), 1 ng/g (75 mg/kg) and 0.7 ng/g (100 mg/kg).
